Biological target: Histamine H1 receptor (Homo sapiens, UniProt P35367)
Assay: biochemical

Protein sequences, listed by entry. Tags and fused reporters are not part of them.
UniProt P35367, whole entry: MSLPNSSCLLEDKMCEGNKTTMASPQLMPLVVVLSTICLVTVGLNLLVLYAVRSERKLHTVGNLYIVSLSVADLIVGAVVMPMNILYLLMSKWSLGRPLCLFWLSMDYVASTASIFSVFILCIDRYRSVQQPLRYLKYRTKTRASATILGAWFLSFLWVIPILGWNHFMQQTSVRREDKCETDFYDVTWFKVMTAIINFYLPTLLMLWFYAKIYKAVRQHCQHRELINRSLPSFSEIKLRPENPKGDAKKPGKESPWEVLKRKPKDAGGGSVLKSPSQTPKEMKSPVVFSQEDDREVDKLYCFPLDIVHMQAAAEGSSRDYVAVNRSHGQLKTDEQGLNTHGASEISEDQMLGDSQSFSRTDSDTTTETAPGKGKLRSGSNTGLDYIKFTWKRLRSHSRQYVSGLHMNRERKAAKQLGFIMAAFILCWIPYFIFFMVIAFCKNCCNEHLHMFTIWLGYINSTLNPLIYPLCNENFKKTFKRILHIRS

SMILES	Ki
Cc1cccc2c(CCN)cn(Cc3ccccc3)c12	0.537 µM
NCCSc1nc(C2CCCCC2)n(-c2ccccc2)n1	8.13 µM
OCCN1CCN(c2ncnc3c2oc2ccccc23)CC1	5.37 µM

From ChEMBL document CHEMBL1921782
